According to publication PMC8333620, “Novel Tl(III) complexes containing pyridine-2,6-dicarboxylate derivatives with selective anticancer activity through inducing mitochondria-mediated apoptosis in A375 cells” (Scientific Reports, 2021):

Test system: A375 (a human melanoma) cell line
Experiment: MTT cytotoxicity assay, A375
Format: cell-based
Settings: 48 h, concentration not given
Protocol: In this study, A375 (a human melanoma), HT29 (a human colon adenocarcinoma), and HFF (a human foreskin fibroblast) cell lines were provided from the Pasteur Institute (Iran). […] 10 mM stock solutions of compounds were prepared in DMSO and diluted in a fresh medium for use. The final concentration of DMSO never exceeded 0.1% (v/v). […] Then the medium was replaced with the respective medium containing ligands or Tl(III) complexes at different concentrations and incubated for 48 h. 10 μL of MTT was added and the medium was removed after 4 h of incubation. Finally, the violet crystal was solubilized in 100 μL DMSO and the absorbance was measured at 570 nm. IC50 value was measured by the standard method. The evaluations were carried out in triplicate[21],[23].

O=C1[O][Pt]2([NH][C@@H]3CCCC[C@H]3[NH]2)[O]C1=O [Oxaliplatin, reference compound]
Viability inhibition, A375: 46.79%
